Patent US9771336B2, “Tetrazole based corrosion inhibitors” (Ecolab USA Inc., priority 2013, dated 2017)

Experiment: Copper corrosion rate with and without bleach in a cooling water environment
Conditions: average copper corrosion rate, inhibitor concentration 5 ppm

Which “Corrosion Rate (mpy) with Bleach (1 FRC)” value (with bleach) does the source give for `C(Cc1nnn[nH]1)CC(CCc1nnn[nH]1)c1nnn[nH]1` (centres unmarked) here?
Its value is 0.108 mpy.

What about the “Corrosion Rate (mpy) without Bleach” value (without bleach) of the same molecule?
The value was 0.223 mpy.
